Experimental data from US20220348590A1, “CYCLOOXYGENASE-2 INHIBITORS AND USES THEREOF” (The Board Institute, Inc., priority 2019, published 2022).

The chains behind the UniProt entries cited, without tags or fusion partners.
UniProt P35354, whole entry: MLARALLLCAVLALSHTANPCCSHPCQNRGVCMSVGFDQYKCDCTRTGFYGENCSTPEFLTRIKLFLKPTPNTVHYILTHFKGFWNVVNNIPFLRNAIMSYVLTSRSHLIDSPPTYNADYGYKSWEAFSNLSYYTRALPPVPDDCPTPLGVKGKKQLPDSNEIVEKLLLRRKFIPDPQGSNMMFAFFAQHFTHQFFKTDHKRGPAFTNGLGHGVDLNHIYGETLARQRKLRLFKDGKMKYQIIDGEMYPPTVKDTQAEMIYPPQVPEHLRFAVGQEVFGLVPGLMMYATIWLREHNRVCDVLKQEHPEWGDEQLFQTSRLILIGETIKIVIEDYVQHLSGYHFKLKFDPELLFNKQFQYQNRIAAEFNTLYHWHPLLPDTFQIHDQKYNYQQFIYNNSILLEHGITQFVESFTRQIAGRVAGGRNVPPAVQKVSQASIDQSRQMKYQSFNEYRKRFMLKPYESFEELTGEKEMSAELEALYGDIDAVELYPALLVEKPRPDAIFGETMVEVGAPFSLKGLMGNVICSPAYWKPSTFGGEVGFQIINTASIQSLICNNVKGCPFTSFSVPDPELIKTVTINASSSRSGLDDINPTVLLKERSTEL

Biological target: human recombinant COX2 (hCOX2) (UniProt P35354)
Assay: LCMS-based COX2 enzymatic inhibition assay (PGE2 quantification)
Format: biochemical
Method: We have adapted a previously reported cyclooxygenase enzymatic assay utilizing LCMS quantification of PGE2 as the product of COX-1 and COX2 catalyzed conversion of arachidonic acid to evaluate the binding properties of newly synthesized ligands [Cao, 2011]. These optimized and miniaturized (384-well plates) LCMS-based COX-1 and COX2 enzymatic assays enabled us to quickly evaluate newly synthesized ligands for COX2 binding affinity and selectivity vs COX-1. Using a shorter ligand-enzyme incubation time in the LCMS assay (2 minutes vs 10 minutes) also permitted us to prioritize ligands with faster binding kinetics. Considering the relatively slow on-rate kinetics of known coxibs, due to their 3-step binding mechanism [Marnett, 2009], we believe that optimizing this critical parameter will be key to the successful development of a COX2 PET tracer. Using these enzymatic assays, we have evaluated>200 newly synthesized ligands against COX2 and >20 ligands against COX-1. Another critical property necessary for a good PET radiotracer is to have low non-specific binding (NSB) to increase the free fraction and maximize the signal to noise ratio. This property can be evaluated using in-vitro protein binding assays, and we have now evaluated>50 newly synthesized ligands in mouse, rat and human plasma protein binding (PPB) assays as well as >15 ligands in a mouse brain protein binding (BPB) assay.
Ovine COX-1 (oCOX-1), ovine COX2 (oCOX2), human recombinant COX2 (hCOX2), arachidonic acid, PGE2, d4-PGD2, and […] (labeled with deuterium atoms at positions 3 and 4) were purchased from Cayman Chemicals (Ann Arbor, Mich.). […]
The concentration of PGE2 in each sample was measured using LC-MS-MS, and the percent of COX inhibition by each test solution was determined by comparing the amount of PGE2 produced in the experiment with that produced in the negative control incubation. The formation of PGD2 was measured for quality control purposes, since the levels of PGD2 should be proportional to those of PGE2. […]

COX2 2 minutes pge2/pge2d4 area ratio Avg. IC50 (readout pge2/pge2d4 area ratio, average): 5.2 µM | COX2 2 minutes pge2/pge2d4 area ratio Avg. LLE (readout pge2/pge2d4 area ratio, average LLE): 0.784 | COX2 2 minutes pge2 area (counts) Avg. LLE (readout pge2 area (counts), average LLE): 0.784
Structure (SMILES): CS(=O)(=O)c1ccc(-c2cc3c(ccn3Cc3cccs3)cn2)cc1
